Laboratory results as given in patent US9694016B2 (Novartis AG, priority 2013, dated 2017).

Amino acid sequences for entries named in this document (tags omitted).
UniProt P04049, whole entry Y340E/Y341E: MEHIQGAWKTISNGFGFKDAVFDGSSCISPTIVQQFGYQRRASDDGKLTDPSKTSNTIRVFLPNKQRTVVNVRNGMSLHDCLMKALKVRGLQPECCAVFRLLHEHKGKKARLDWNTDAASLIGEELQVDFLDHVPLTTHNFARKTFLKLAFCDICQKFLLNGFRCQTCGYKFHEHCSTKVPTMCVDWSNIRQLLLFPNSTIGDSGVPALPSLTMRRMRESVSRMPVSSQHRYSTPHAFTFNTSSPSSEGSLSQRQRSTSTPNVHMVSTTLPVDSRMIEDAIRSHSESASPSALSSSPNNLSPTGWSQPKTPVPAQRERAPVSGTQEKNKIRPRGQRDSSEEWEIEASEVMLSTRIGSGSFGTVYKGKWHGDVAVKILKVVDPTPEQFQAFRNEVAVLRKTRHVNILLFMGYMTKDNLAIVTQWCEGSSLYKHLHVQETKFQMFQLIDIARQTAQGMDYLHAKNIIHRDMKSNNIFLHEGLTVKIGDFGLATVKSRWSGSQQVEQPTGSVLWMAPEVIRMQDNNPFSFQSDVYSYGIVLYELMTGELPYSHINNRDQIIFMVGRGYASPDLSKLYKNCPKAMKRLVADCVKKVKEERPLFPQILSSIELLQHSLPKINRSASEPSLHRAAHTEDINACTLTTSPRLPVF

Biological target: C-Raf FL (full-length C-Raf protein, Y340E and Y341E activating mutations) (Homo sapiens (Human), UniProt P04049, Y340E/Y341E)
Format: biochemical
Conditions: AlphaScreen, 60 min pre-incubation, reaction 1 hour at room temperature; read-out: c-Raf FL IC-50

IC50 | SMILES
61.3 nM | Cc1ccc(NC(=O)[C@@H]2CCN[C@H](C(F)(F)F)C2)cc1-c1cc(C2COCCO2)nc(N2CCOCC2)c1 (stereo in doubt) [Example 1132, N-(3-(2-(1,4-dioxan-2-yl)-6-morpholinopyridin-4-yl)-4-methylphenyl)-2-(trifluoromethyl)piperidine-4-carboxamide]

Same assay, conditions: Table 2; AlphaScreen, 1 hour reaction; read-out: c-Raf FL IC-50

IC50 | SMILES
0.4 nM | Cc1ncc(NC(=O)c2cccc(C(F)(F)F)c2)cc1-c1cnc(OC2CCCC(O)C2)c(N2CCOCC2)c1 (single isomer, unassigned) [Example 320, N-(6′-((3-hydroxycyclohexyl)oxy)-2-methyl-5′-morpholino-[3,3′-bipyridin]-5-yl)-3-(trifluoromethyl)benzamide]
0.3 nM | Cc1ccc(NC(=O)c2cc(C(C)(C)C)no2)cc1-c1cc(N2CCOCC2)nc(N2CCOCC2)n1 [Example 24, 3-(tert-butyl)-N-(3-(2,6-dimorpholinopyrimidin-4-yl)-4-methylphenyl)isoxazole-5-carboxamide]
0.2 nM | CCNc1nc(-c2cc(NC(=O)c3cccc(C(F)(F)F)c3)ccc2C)cc(N2CCOCC2)n1 [Example 28, N-(3-(2-(ethylamino)-6-morpholinopyrimidin-4-yl)-4-methylphenyl)-3-(trifluoromethyl)benzamide]
0.5 nM | Cc1ccc(NC(=O)c2cccc(C(F)(F)F)c2)cc1-c1cc(N2CCOCC2)nc(N2CCCC2=O)n1 [Example 36, N-(4-methyl-3-(6-morpholino-2-(2-oxopyrrolidin-1-yl)pyrimidin-4-yl)phenyl)-3-(trifluoromethyl)benzamide]
0.3 nM | Cc1ccc(NC(=O)c2cccc(C(F)(F)F)c2)cc1-c1cc(N2CCOCC2)nc(NC(CO)CO)n1 [Example 39, N-(3-(2-((1,3-dihydroxypropan-2-yl)amino)-6-morpholinopyrimidin-4-yl)-4-methylphenyl)-3-(trifluoromethyl)benzamide]
0.7 nM | Cc1ccc(NC(=O)c2cccc(C(F)(F)F)c2)cc1-c1cc(N2CC3CC2CO3)nc(N2CCOCC2)n1 (stereo not drawn) [Example 51, N-(3-(6-(2-oxa-5-azabicyclo[2.2.1]heptan-5-yl)-2-morpholinopyrimidin-4-yl)-4-methylphenyl)-3-(trifluoromethyl)benzamide]
0.7 nM | Cc1ccc(NC(=O)c2cccc(C(F)(F)F)c2)cc1-c1cc(N2CCO[C@H](C)C2)nc(N2CCOCC2)n1 [Example 53, (R)—N-(4-methyl-3-(6-(2-methylmorpholino)-2-morpholinopyrimidin-4-yl)phenyl)-3-(trifluoromethyl)benzamide]
0.4 nM | Cc1ccc(NC(=O)c2cccc(C(F)(F)F)c2)cc1-c1cc(N2CCOCC2)cnn1 [Example 59, N-(4-methyl-3-(5-morpholinopyridazin-3-yl)phenyl)-3-(trifluoromethyl)benzamide]
0.8 nM | Cc1ccc(C(=O)Nc2cccc(C(F)(F)F)c2)cc1-c1cc(N2CCOCC2)ccn1 [Example 64, 4-methyl-3-(4-morpholinopyridin-2-yl)-N-(3-(trifluoromethyl)phenyl)benzamide]
0.2 nM | Cc1ccc(NC(=O)c2cccc(C(F)(F)F)c2)cc1-c1cc(N2CCOCC2)nc(N2CCOCC2)c1 [Example 65, N-(3-(2,6-dimorpholinopyridin-4-yl)-4-methylphenyl)-3-(trifluoromethyl)benzamide]
0.3 nM | Cc1ccc(NC(=O)c2ccnc(S(C)(=O)=O)c2)cc1-c1ccnc(N2CCOCC2)c1 [Example 73, N-(4-methyl-3-(2-morpholinopyridin-4-yl)phenyl)-2-(methylsulfonyl)isonicotinamide]
0.2 nM | Cc1ncc(NC(=O)c2cccc(C(F)(F)F)c2)cc1-c1ccnc(N2CCOCC2)c1 [Example 96, N-(2-methyl-2′-morpholino-[3,4′-bipyridin]-5-yl)-3-(trifluoromethyl)benzamide]
0.2 nM | Cc1ncc(NC(=O)c2cccc(C(F)F)c2)cc1-c1ccnc(N2CCOCC2)c1 [Example 99, 3-(difluoromethyl)-N-(2-methyl-2′-morpholino-[3,4′-bipyridin]-5-yl)benzamide]
0.3 nM | Cc1ncc(NC(=O)c2cccc(C(C)(F)F)c2)cc1-c1ccnc(N2CCOCC2)c1 [Example 101, 3-(1,1-difluoroethyl)-N-(2-methyl-2′-morpholino-[3,4′-bipyridin]-5-yl)benzamide]

More lines, now with the values behind:

SMILES | IC50
Cc1ccc(C(=O)Nc2cccc(C(F)(F)F)c2)cc1-c1cc(N2CCOCC2=O)nc(N2CCOCC2)n1 [Example 4, 4-methyl-3-(2-morpholino-6-(3-oxomorpholino)pyrimidin-4-yl)-N-(3-(trifluoromethyl)phenyl)benzamide] | 0.4 nM
Cc1ccc(C(=O)Nc2cccc(C(F)(F)F)c2)cc1-c1nc(N2CCOCC2)cc(N2CCOCC2)n1 [Example 14, 3-(4,6-dimorpholinopyrimidin-2-yl)-4-methyl-N-(3-(trifluoromethyl)phenyl)benzamide] | 0.7 nM
Cc1ccc(NC(=O)c2cccc(S(C)(=O)=O)c2)cc1-c1cc(N2CCOCC2)nc(N2CCOCC2)n1 [Example 23, N-(3-(2,6-dimorpholinopyrimidin-4-yl)-4-methylphenyl)-3-(methylsulfonyl)benzamide] | 0.6 nM
Cc1ccc(NC(=O)c2cc(C(C)(C)C)on2)cc1-c1cc(N2CCOCC2)nc(N2CCOCC2)n1 [Example 25, 5-(tert-butyl)-N-(3-(2,6-dimorpholinopyrimidin-4-yl)-4-methylphenyl)isoxazole-3-carboxamide] | 0.4 nM
Cc1ccc(NC(=O)c2cccc(C(F)(F)F)c2)cc1-c1cc(N2CCOCC2)nc(S(C)(=O)=O)n1 [Example 27, N-(4-methyl-3-(2-(methylsulfonyl)-6-morpholinopyrimidin-4-yl)phenyl)-3-(trifluoromethyl)benzamide] | 0.1 nM
CNc1nc(-c2cc(NC(=O)c3cccc(C(F)(F)F)c3)ccc2C)cc(N2CCOCC2)n1 [Example 30, N-(4-methyl-3-(2-(methylamino)-6-morpholinopyrimidin-4-yl)phenyl)-3-(trifluoromethyl)benzamide] | 0.3 nM
Cc1ccc(NC(=O)c2cccc(C(F)(F)F)c2)cc1-c1cc(N2CCOCC2)nc(-n2ccnc2)n1 [Example 33, N-(3-(2-(1H-imidazol-1-yl)-6-morpholinopyrimidin-4-yl)-4-methylphenyl)-3-(trifluoromethyl)benzamide] | 0.1 nM
Cc1ccc(NC(=O)c2cccc(C(F)(F)F)c2)cc1-c1cc(N2CCOCC2)nc(OCCO)n1 [Example 34, N-(3-(2-(2-hydroxyethoxy)-6-morpholinopyrimidin-4-yl)-4-methylphenyl)-3-(trifluoromethyl)benzamide] | 0.3 nM
Cc1ccc(NC(=O)c2cccc(C(F)(F)F)c2)cc1-c1cc(N2CCOCC2)nc(NS(C)(=O)=O)n1 [Example 35, N-(4-methyl-3-(2-(methylsulfonamido)-6-morpholinopyrimidin-4-yl)phenyl)-3-(trifluoromethyl)benzamide] | 0.6 nM
Cc1ccc(NC(=O)c2cccc(C(F)(F)F)c2)cc1-c1cc(N2CCOCC2)nc(OCCO)n1 [Example 40, N-(3-(2-(2-hydroxyethoxy)-6-morpholinopyrimidin-4-yl)-4-methylphenyl)-3-(trifluoromethyl)benzamide] | 0.2 nM
Cc1ccc(NC(=O)c2cccc(C(F)(F)F)c2)cc1-c1cc(N2CC3(COC3)C2)nc(N2CCOCC2)n1 [Example 47, N-(4-methyl-3-(2-morpholino-6-(2-oxa-6-azaspiro[3.3]heptan-6-yl)pyrimidin-4-yl)phenyl)-3-(trifluoromethyl)benzamide] | 0.4 nM
Cc1ccc(NC(=O)c2cccc(C(F)(F)F)c2)cc1-c1cc(N2CCOC[C@H]2CO)nc(N2CCOCC2)n1 [Example 48, (R)—N-(3-(6-(3-(hydroxymethyl)morpholino)-2-morpholinopyrimidin-4-yl)-4-methylphenyl)-3-(trifluoromethyl)benzamide] | 0.3 nM
Cc1ccc(NC(=O)c2cccc(C(F)(F)F)c2)cc1-c1cc(N2CCCOCC2)nc(N2CCOCC2)n1 [Example 50, N-(4-methyl-3-(2-morpholino-6-(1,4-oxazepan-4-yl)pyrimidin-4-yl)phenyl)-3-(trifluoromethyl)benzamide] | 0.3 nM
Cc1ccc(NC(=O)c2cccc(C(F)(F)F)c2)cc1-c1nc(N2CCOCC2)nc(N2CCOCC2)c1C [Example 57, N-(4-methyl-3-(5-methyl-2,6-dimorpholinopyrimidin-4-yl)phenyl)-3-(trifluoromethyl)benzamide] | 0.2 nM
Cc1ncc(NC(=O)c2cccc(C(F)(F)F)c2)cc1-c1cnnc(N2CCOCC2)c1 [Example 58, N-(6-methyl-5-(6-morpholinopyridazin-4-yl)pyridin-3-yl)-3-(trifluoromethyl)benzamide] | 1.1 nM
Cc1ccc(NC(=O)c2cccc(C(F)(F)F)c2)cc1-c1ccnc(N2CCOCC2)c1 [Example 62, N-(4-methyl-3-(2-morpholinopyridin-4-yl)phenyl)-3-(trifluoromethyl)benzamide] | 0.2 nM
Cc1ccc(C(=O)Nc2cccc(C(F)(F)F)c2)cc1-c1ccnc(N2CCOCC2)c1 [Example 63, 4-Methyl-3-(2-morpholinopyridin-4-yl)-N-(3-(trifluoromethyl)phenyl)benzamide] | 0.5 nM
Cc1ccc(NC(=O)c2cccc(S(C)(=O)=O)c2)cc1-c1ccnc(N2CCOCC2)c1 [Example 68, N-(4-methyl-3-(2-morpholinopyridin-4-yl)phenyl)-3-(methylsulfonyl)benzamide] | 0.1 nM
Cc1ccc(NC(=O)c2cccc(C(F)F)c2)cc1-c1ccnc(N2CCOCC2)c1 [Example 75, 3-(difluoromethyl)-N-(4-methyl-3-(2-morpholinopyridin-4-yl)phenyl)benzamide] | 0.06 nM

Same assay, conditions: full-length C-Raf approximately 4 nM, ATP 1 uM, 60 min pre-incubation, 1 hour reaction

SMILES | IC50
Cc1ccc(NC(=O)c2cccc(C(F)(F)F)c2)cc1-c1cc(N2CCOCC2)nc(OCCO)n1 [Example 34, N-(3-(2-(2-hydroxyethoxy)-6-morpholinopyrimidin-4-yl)-4-methylphenyl)-3-(trifluoromethyl)benzamide] | 0.304 nM

Same assay, conditions: read-out: c-Raf FL IC-50

SMILES | IC50
Cc1ccc(NC(=O)c2cccc(C(F)(F)F)c2)cc1-c1cc(N2C3CCC2COC3)nc(N2CCOCC2)n1 [Example 49, N-(3-(6-(3-oxa-8-azabicyclo[3.2.1]octan-8-yl)-2-morpholinopyrimidin-4-yl)-4-methylphenyl)-3-(trifluoromethyl)benzamide] | 0.4 nM
